Target: Neuronal acetylcholine receptor subunit alpha-7 (Homo sapiens, UniProt P36544)
Assay: Displacement of [125I]alpha-bungarotoxin from alpha7 nAChR

The chains behind the UniProt entries cited, without tags or fusion partners. Residues count along the entry.
UniProt P36544, 23-502 limits assumed: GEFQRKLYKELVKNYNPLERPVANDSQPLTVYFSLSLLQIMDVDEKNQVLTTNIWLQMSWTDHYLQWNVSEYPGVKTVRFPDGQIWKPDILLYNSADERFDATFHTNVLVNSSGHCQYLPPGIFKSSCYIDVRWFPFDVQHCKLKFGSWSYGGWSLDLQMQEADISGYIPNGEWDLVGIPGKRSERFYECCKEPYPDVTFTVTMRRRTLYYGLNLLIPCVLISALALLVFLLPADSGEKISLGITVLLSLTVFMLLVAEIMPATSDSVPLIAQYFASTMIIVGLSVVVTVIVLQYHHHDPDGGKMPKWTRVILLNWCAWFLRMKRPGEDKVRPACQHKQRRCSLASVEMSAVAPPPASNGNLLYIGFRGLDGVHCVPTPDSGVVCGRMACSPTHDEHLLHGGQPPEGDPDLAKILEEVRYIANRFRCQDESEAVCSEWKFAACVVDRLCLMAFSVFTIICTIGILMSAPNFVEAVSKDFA

Compound: CN1C[C@@]2(CN3CCC2CC3)OC1=O
- Kd: 220 nM
